OPERA 2.9 data: logP (octanol/water) values

Values as listed in the OPERA 2.9 repository of K. Mansouri.

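These are experimental values that the OPERA curators gathered from public databases to train and test their QSAR models. The files give a single number for a compound and property, which may rest on several reports. Method, purity and exact conditions of the single measurements are not given. A value may pool stereoisomers or salt forms, and the file does not say which form was measured. Unmarked limits or estimates from the upstream databases cannot be ruled out.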

logP is the log10 of the octanol-water partition coefficient; higher is more lipophilic.
"n/a" marks a cell with nothing listed here.
"via" names the databases from which the curators took the value.

SMILES,name,logP (octanol/water),via
CC1=CC(=O)[C@@H]2[C@H](C1)C2(C)C,"(1R,6S)-4,7,7-Trimethylbicyclo[4.1.0]hept-3-en-2-one",2.3,eChemPortal
COc1cc2c(cc1OC)CC(=O)N(CCC1OCCO1)C=C2,n/a,1.64,eChemPortal
CCCCC(C#N)c1ccccc1 (configuration not stated),2-Phenylhexanenitrile,3.14,eChemPortal
CCCCCC(CO)Cc1ccccc1 (configuration not stated),"Benzenepropanol, .beta.-pentyl-",4,eChemPortal
O=C(Nc1cccc([N+](=O)[O-])c1)c1cc2ccccc2cc1O,3-Hydroxy-N-(3-nitrophenyl)naphthalene-2-carboxamide,4.3,eChemPortal
C=CCC(C)C,4-Methyl-1-pentene,3.375,"OCHEM, eChemPortal"
COc1cc(S(=O)(=O)Nc2ccccc2)c(OC)cc1N,"4-Amino-2,5-dimethoxy-N-phenylbenzenesulfonamide",1.81,eChemPortal
O=C1c2ccccc2C(=O)c2cc(Cl)ccc21,2-Chloroanthraquinone,4.46,OCHEM
CCC(CC)(CC(=O)Nc1cccc(/C=C/c2nc(C3CCC3)cs2)c1)C(=O)O,Cinalukast,4,PubChem
CC(=O)N[C@H]1[C@H]([C@H](O)[C@H](O)CO)OC(C(=O)O)=C[C@@H]1NC(=N)N,Zanamivir,-3,PubChem
Cc1c(Br)c2ccc(F)cc2n1S(=O)(=O)c1ncn(S(=O)(=O)N(C)C)n1,Amisulbrom,4.4,PubChem
C[N+](C)(C)CCCc1ccccc1.[I-],"N,N,N-Trimethyl-3-phenylpropan-1-aminium iodide",-2.02,OCHEM
C[N+](C)(C)CC(O)CCl.[Cl-] (configuration not stated),(3-Chloro-2-hydroxypropyl)trimethylammonium chloride,-1.5,eChemPortal
CC(=O)[O-].Cn1cnn(C)/c1=N/N=C1C=CC(=[N+](C)Cc2ccccc2)C=C1,n/a,3.05,eChemPortal
CC(C)C[C@H]1OC[C@@H](C)CO1,"1,3-Dioxane, 5-methyl-2-(2-methylpropyl)-, cis-",3.07,OCHEM
CCOc1cc(C)ccc1O,"Phenol, 2-ethoxy-4-methyl-",2.5,OCHEM
C#CCOCc1ccc(Cl)cc1,1-Chloro-4-[(2-propyn-1-yloxy)methyl]benzene,3,eChemPortal
c1cnc2cc3c(cc2n1)[C@@H]1CNC[C@H]3C1,Varenicline,0.9,PubChem
CC(C)(C)c1ccc(Nc2ccc(Nc3ccc(C(C)(C)C)cc3)c3c2C(=O)c2c(O)ccc(O)c2C3=O)cc1,n/a,10.7,eChemPortal
NCc1ccccc1Cl,2-Chlorobenzylamine,1.6,eChemPortal
Nc1cc(N2CCCC2)nc(N)[n+]1[O-],Pyrrolidinyl diaminopyrimidine oxide,0.84,OCHEM
CCOC(=O)C(CC)C(=O)OCC,Diethyl ethylpropanedioate,2.4,eChemPortal
OCc1cncs1,5-Hydroxymethylthiazole,-0.17,eChemPortal
O=C([O-])CC[n+]1ccccc1,3-(Pyridin-1-ium-1-yl)propanoate,-1.35,eChemPortal
CCCCC(CC)COC(=O)OCC(CC)CCCC (configuration not stated),Bis(2-ethylhexyl) carbonate,4.1,eChemPortal
Cc1cn[nH]c1,4-Methylpyrazole,0.9,PubChem
CCCCCCCCCCCOC(=O)CCC,Undecyl butyrate,6.11,OCHEM
CNC1(C)C2CCC(C2)C1(C)C (configuration not stated),Mecamylamine,2.7,PubChem
COc1ccc2c(O[C@@H]3C[C@H]4C(=O)N[C@]5(C(=O)O)C[C@H]5C=CCCCCN(C)C(=O)[C@@H]4C3)cc(-c3nc(C(C)C)cs3)nc2c1C,n/a,4.1,eChemPortal
Nc1ccc2c(O)c(/N=N/c3ccc4c(O)c(/N=N/c5ccccc5)c(S(=O)(=O)[O-])cc4c3)c(S(=O)(=O)[O-])cc2c1.[Na+].[Na+],C.I. Direct Red 16,-1.5,eChemPortal
O=c1nc(O)ccn1[C@@H]1O[C@H](CO)C[C@@H]1F,n/a,-0.87,OCHEM
CCN(CCC#N)c1ccc(N=Nc2ccc([N+](=O)[O-])cc2C#N)cc1,n/a,3.67,eChemPortal
CCOCCOCCOC,"Ethane, 1-ethoxy-2-(2-methoxyethoxy)-",0.365,eChemPortal
Nc1ccc(CCc2ccc(N)cc2)cc1,"Benzenamine, 4,4'-(1,2-ethanediyl)bis-",2.25,eChemPortal
O=C(Nc1ccc(Cc2ccc(NC(=O)NC3CCCCC3)cc2)cc1)NC1CCCCC1,n/a,3.5,eChemPortal
CC(O)CN(CC(C)O)C(=O)c1ccccc1 (configuration not stated),"N,N-Bis(2-hydroxypropyl)benzamide",0.23,eChemPortal
O=C1c2ccccc2C(=O)c2c(NCCCOCCOCCO)ccc(NCCCOCCOCCO)c21,n/a,2.61,eChemPortal
CCOC1CC(C)CC(C)(C)C1 (configuration not stated),"3-Ethoxy-1,1,5-trimethylcyclohexane",3.91,eChemPortal
Cc1nc2n(c(=O)c1CCN1CCC(c3noc4cc(F)ccc34)CC1)CCC[C@H]2O,9-Hydroxy-risperidone,1.8,PubChem
CCOc1ccccc1OCCN[C@H](C)Cc1ccc(OC)c(S(N)(=O)=O)c1,Tamsulosin,2.3,PubChem
BrCCCCCCCCCCBr,"1,10-Dibromodecane-",6.12,OCHEM
Nc1nc(Cl)nc(Nc2cc(S(=O)(=O)[O-])cc3cc(S(=O)(=O)[O-])c(/N=N/c4cc(S(=O)(=O)[O-])c5cccc(S(=O)(=O)[O-])c5c4[O-])c([O-])c23)n1.[Cu+2].[Na+].[Na+].[Na+].[Na+],n/a,-4.7,eChemPortal
C=C(C)C(=O)OCCNC(=O)n1nc(C)cc1C,n/a,2.5,eChemPortal
CCC(C)n1ncn(-c2ccc(N3CCN(c4ccc(O)cc4)CC3)cc2)c1=O (configuration not stated),n/a,2.5,eChemPortal
CN1CCCC(n2nc(Cc3ccc(Cl)cc3)c3ccccc3c2=O)CC1 (configuration not stated),Azelastine,4.9,PubChem

Extract of 5 entries:

SMILES	name	logP (octanol/water)	via
CCN(CCC#N)c1ccc(N=Nc2ccc([N+](=O)[O-])cc2C#N)cc1	n/a	3.67	eChemPortal
CCOC1CC(C)CC(C)(C)C1 (configuration not stated)	3-Ethoxy-1,1,5-trimethylcyclohexane	3.91	eChemPortal
C[N+](C)(C)CC(O)CCl.[Cl-] (configuration not stated)	(3-Chloro-2-hydroxypropyl)trimethylammonium chloride	-1.5	eChemPortal
NCc1ccccc1Cl	2-Chlorobenzylamine	1.6	eChemPortal
CC(C)(C)c1ccc(Nc2ccc(Nc3ccc(C(C)(C)C)cc3)c3c2C(=O)c2c(O)ccc(O)c2C3=O)cc1	n/a	10.7	eChemPortal